Columns and labels:
[1] = target: T1, Danio rerio CPAP^937–1124 TCP domain, WT (Danio rerio, UniProt E7FCY1 937-1124); assay: ITC; STIL peptide in syringe titrated into CPAP TCP domain in cell; 50 mM HEPES pH 7.5, 100 mM NaCl, 25°C; single set of binding sites model, N as a variable; CPAP typically 40 μM, STIL typically 700 μM; conditions: both partners purified
T1 construct: remnant of the cloning and protease cleavage sites at the N-terminus; also called TCP domain of D. rerio CPAP; G-box; source: E. coli BL21 (DE3) Rosetta, purified (NiNTA, proteolytic tag cleavage, optionally size exclusion, ion exchange); not shown: His tag, N-terminal, cleaved
T1 sequence: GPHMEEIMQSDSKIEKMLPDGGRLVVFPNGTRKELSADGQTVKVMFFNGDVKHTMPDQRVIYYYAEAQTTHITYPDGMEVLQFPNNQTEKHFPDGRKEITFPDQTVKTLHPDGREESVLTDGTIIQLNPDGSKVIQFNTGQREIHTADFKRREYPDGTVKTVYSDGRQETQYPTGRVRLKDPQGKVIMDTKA

[2] = target: T2, Danio rerio CPAP^937–1124 TCP domain T986V (Danio rerio, UniProt E7FCY1 937-1124, T986V); assay: as above; conditions: both partners purified
T2 construct: remnant of the cloning and protease cleavage sites at the N-terminus; source: E. coli BL21 (DE3) Rosetta, purified (NiNTA, proteolytic tag cleavage, optionally size exclusion, ion exchange); not shown: His tag, N-terminal, cleaved
T2 sequence: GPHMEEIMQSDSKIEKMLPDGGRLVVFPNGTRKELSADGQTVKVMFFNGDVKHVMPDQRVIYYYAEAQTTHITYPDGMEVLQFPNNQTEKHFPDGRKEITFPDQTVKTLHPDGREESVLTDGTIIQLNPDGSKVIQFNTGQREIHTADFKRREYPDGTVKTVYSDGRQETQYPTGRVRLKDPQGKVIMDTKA

B1: Danio rerio STIL^404–448, WT (peptide)
chain: GGSDHDSGVEDEDLSPRPSPNPHPVSQQTKRVHPLVPELSMVLDGSFEFGENLYFQ
notes: remnant of the cloning and protease cleavage sites at the N-terminus; STIL, Danio rerio, 1263 aa protein, residues 404-448 spanning the conserved proline-rich region CR2; remnant of the cloning and protease cleavage sites at the C-terminus; also called fragment of D. rerio STIL that spanned CR2; source: E. coli C41 BL21 (DE3), purified (NiNTA, proteolytic cleavage of the His-lipoyl domains, ion …)
Work on B1 yielded a Kd [1] of 1900 nM and a Kd [2] of 1900 nM.

Reference: publication PMC3776556, “Crystal structures of the CPAP/STIL complex reveal its role in centriole assembly and human microcephaly” (eLife, 2013)
